From US20080287490A1, “Bis-pyridino containing compounds for the use in the treatment of CNS pathologies” (UNIVERSITY OF KENTUCKY RESEARCH FOUNDATION, priority 2005, published 2008)

System: nAChR subtypes mediating nicotine-evoked [^3H]-dopamine overflow
Details: read-out: Nicotine-evoked [^3H]DA Overflow IC50; Table 5; mean (95% confidence interval); tested form: iodide (read from the final I of the cod)

CCCCCCCCCC[n+]1ccccc1
IC50: 130 nM
